Laboratory results published in ChEMBL document CHEMBL2169845 (J Med Chem, 2012).

Experiments:
[1] = Cytotoxicity against human NCI-H146 cells assessed as growth inhibition after 4 days by WST-8 assay; assay type: functional, cell-based; settings: NCI-H146, 96 h
NCI-H1417 = assay: Cytotoxicity against human H1417 cells assessed as growth inhibition after 4 days by WST-8 assay; assay type: functional, cell-based; settings: NCI-H1417, 96 h

Row | SMILES | IC50 [1] | IC50 (NCI-H1417)
1 | Cc1c(C(=O)O)c(-c2cccc(N3CCN(c4ccc(NS(=O)(=O)c5ccc(N[C@H](CCN(C)C)CSc6ccccc6)c(S(=O)(=O)C(F)(F)F)c5)cc4)CC3)c2)c(-c2ccc(Cl)cc2)n1C | 98 nM | 151 nM
2 | Cc1c(C(=O)O)c(-c2cccc(N3CCN(c4ccc(NS(=O)(=O)c5ccc(N[C@H](CCN6CCOCC6)CSc6ccccc6)c(S(=O)(=O)C(F)(F)F)c5)cc4)CC3)c2)c(-c2ccc(Cl)cc2)n1C | 476 nM | 677 nM
